From PubChem BioAssay
MITF TRPM1 HTS = activators of MITF-driven TRPM1 promoter activity in SK-MEL-5 cells. activation, % at 12.5 µM. SK-MEL-5 TRPM1-promoter luciferase, 24 h; % of positive control, neutral wells = 0. 300,000 tested, 0.75% active;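 active means mean activation of at least 80% with every replicate also reaching 80%; inconclusive means mean reaches 80% but some replicate falls short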;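 further: 0% = neutral control wells and 100% = parthenolide positive control wells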
Yeast UUG start = modulators of yeast start codon fidelity, primary screen, whole organism, S. cerevisiae, single point, plate reader | AID 602363, 2012 | S. cerevisiae UUG-firefly luciferase reporter, luminescence/redox ratio | activity score, % at 18.7 µM | hit rate 0.13% among 350,000;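 active = replicate mean at a twofold rise or more, about +100% in these data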;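 also: firefly luciferase made from a UUG start codon reports start codon fidelity; reporter light over untreated wells divided by growth signal over untreated wells; some hits fall short of that in this replicate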
Wnt act = Wnt/beta-catenin pathway activation | Wnt/beta-catenin reporter cell assay, activator, plate reader | AID 743398 | activation, % at 9.35 µM | 300,000 tested, 1.2% active; in the data active means activation above about 30%, passing the limit was not always enough; inconclusive means no clear call, values can overlap the other calls;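 further: 0% = neutral control wells and 100% = positive control wells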
PGC1a acetyl inh = lowers PGC1a acetylation signal in U2OS cells; 350,000 tested, 0.17% active; inhibition, % at 15.6 µM; AlphaScreen anti-acetyl-lysine; with virally co-expressed GCN5 acetyltransferase;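 active means every replicate shows inhibition of at least 40%; inconclusive means mean inhibition at least 40% but some replicate below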;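 further: 0% = neutral control wells and 100% = positive control wells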
MITF TRPM1 inh = inhibitors of MITF-driven TRPM1 promoter in melanoma cells | inhibition, % at 12.5 µM | 330,000 tested, 0.83% active | SK-MEL-5 TRPM1 promoter luciferase, 24 h;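 active means mean inhibition across replicates of 60% or more, whatever share of single replicates reaches that level; inconclusive means some that reach 60%, reason not given; inactive means mean inhibition across replicates below 60%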
miR122 inh = miR-122 inhibition in Huh7 cells | Huh7 miR-122 Renilla luciferase sensor, 48 h; neutral wells = 0, positive control = 100 | activation (reporter increase), % at 12.5 µM | 340,000 tested, 0.3% active | AID 602342;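 active means mean replicate activation score at least 90 and every replicate individually at or above 90; inconclusive means only one of the two criteria met; inactive means neither criterion met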;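 further: higher luciferase means less miR-122 activity so hits act as miR-122 inhibitors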
Active calls of the source: *; ? = inconclusive; · = not tested or not shown; [ ] = another dose, or the depositor's remark. Rows were chosen to be rich in hits. Some 2.1% of all compounds tested hit in one or more screens of this group.

SMILES	MITF TRPM1 HTS	Yeast UUG start	Wnt act	PGC1a acetyl inh	MITF TRPM1 inh	miR122 inh
CCC(C)(CC(=O)O)CC(=O)Nc1cc(C(F)(F)F)cc(C(F)(F)F)c1 (stereo not given)	-10	·	0	68*	12	·
O=C(O)COCC(=O)Nc1cc(C(F)(F)F)cc(C(F)(F)F)c1	-9	·	2	·	9	·
COc1ccc(-c2nc(C3CCCCC3)no2)cc1OC	106*	-19	-2	-1	-114	-4
COCC(=O)Nc1ccc2c(c1)C(=O)N(C)[C@H]1CC[C@@H](CC(=O)N3CCc4ccccc4C3)O[C@H]1CO2	·	·	·	-5	·	22[16.7 µM]
CN1c2ccc(-c3cccc(C#N)c3)cc2[C@H]2[C@H](CCN2C(=O)C2CCC2)[C@@H]1CO	·	-1	·	-34	·	4[16.7 µM]
O=C(C[C@@H]1CC[C@H]2[C@@H](COC[C@H](O)CN2C(=O)Nc2cccc(Cl)c2)O1)N1CCCCC1	·	·	·	0	·	-8[16.7 µM]
CCC(=O)Nc1ccc(C(=O)Nc2cccnc2)cc1	20	-12	5	-11	-20	-3
CCC(C)c1ccc(O)c(NC(=O)c2cccnc2)c1 (stereo not given)	1	-10	·	1	-4	26
CCC(C)c1ccc(NC(=O)c2cccnc2)cc1 (stereo not given)	89*	-5	·	-12	-92	8
CC(C)(C)C(=O)Nc1ccc(C(=O)Nc2cccnc2)cc1	69	-7	49*	-13	-76	0
CO[C@@H]1CN(C)C(=O)c2ccc(NC(=O)Nc3cc(F)ccc3F)cc2OC[C@H](C)NC[C@H]1C	·	18	·	5	·	0[16.7 µM]
Cc1nc([N+](=O)[O-])cn1CC(O)c1ccc(Cl)cc1 (stereo not given)	·	-20	37*	4	-2	-5
CO[C@@H]1CN(C)C(=O)c2ccc(NC(=O)C3CC3)cc2OC[C@@H](C)N(Cc2nccs2)C[C@H]1C	·	-15	·	·	·	-6[16.7 µM]
N=c1c2ccccc2nnn1-c1ccccc1[N+](=O)[O-]	4	·	0	7	0	161*
Clc1ccc(-c2ccc(SCc3ccccn3)nn2)cc1	116*	-26	36*	-26	-122	0
c1ccc(CSc2ccc(-c3ccccn3)nn2)nc1	44	·	9	0	-39	·
COc1cccc(-c2ccc(SCc3ccccn3)nn2)c1	114*	·	?	-11	-107	·
COc1ccc2c(c1)C1=NN(/C(C)=C/C(C)=O)C(c3ccc(F)cc3)C1CC2 (stereo not given)	9	-14	·	11	-7	7
COc1ccc2c(c1)CCC1C2=NN(/C(C)=C\C(C)=O)C1c1ccc(F)cc1 (stereo not given)	27	·	52*	·	-27	·
On1ccccc1=S	-73	-58	-3	-9	75*	0
O=C(Cn1ccccc1=S)c1ccc(Cl)c(Cl)c1	·	-24	20	1	·	6
NC(=O)[C@H]1[C@@H]2C(=O)O[C@@H](c3ccccc3)[C@@H](c3ccccc3)N2[C@@H](c2ccc(OCCO)cc2)[C@]12C(=O)Nc1ccccc12	·	9	·	·	·	·
O=C(C[C@H]1C[C@@H]2c3cc(NC(=O)NC4CCCCC4)ccc3O[C@@H]2[C@@H](CO)O1)NCc1ccccn1	·	-2	·	-2	·	6[16.7 µM]
Cc1ccc2nc(-c3cccc(Br)c3)c(Cc3cccc(Cl)c3)n2c1	·	-2	36*	-10	·	4
Cc1ccc(Cc2c(-c3cccc(Cl)c3)nc3ccc(Br)cn23)cc1	·	-29	40*	9	·	-4
Cc1ccc2nc(-c3ccccc3)c(Cc3cccc(Cl)c3)n2c1	·	-27	41*	2	·	3
CCOC(=O)c1c(-c2ccccc2)nc2ccc(C)cn12	43	-15	47*	0	-43	3
Cc1ccc2nc(-c3cccc(Br)c3)c(Cc3ccccc3)n2c1	·	-14	22	-6	·	11
Cc1ccc(Cc2c(-c3cccc(Cl)c3)nc3ccc(C)cn23)cc1	·	-16	0	-13	·	24
Cc1ccc(S(=O)(=O)Nc2ccc3c(c2)C(=O)N([C@H](C)CO)C[C@@H](C)[C@@H](CN(C)C(=O)Cc2ccccc2)OCCCC[C@H](C)O3)cc1	·	10	·	-6	·	18[16.7 µM]
Clc1cccc(Cc2c(-c3cccc(Br)c3)nc3ccc(Cl)cn23)c1	·	-39	0	-3	·	1
Clc1ccc2nc(-c3cccc(Br)c3)c(Cc3ccccc3)n2c1	·	-15	34*	-24	·	1

Pulled by compound from the list above:
SMILES	MITF TRPM1 HTS	Yeast UUG start	Wnt act	PGC1a acetyl inh	MITF TRPM1 inh	miR122 inh
COc1ccc(-c2nc(C3CCCCC3)no2)cc1OC	106*	-19	-2	-1	-114	-4
COc1ccc2c(c1)CCC1C2=NN(/C(C)=C\C(C)=O)C1c1ccc(F)cc1 (stereo not given)	27	·	52*	·	-27	·

Compound profiles, as listed above. Order of screens: MITF TRPM1 HTS | Yeast UUG start | Wnt act | PGC1a acetyl inh | MITF TRPM1 inh | miR122 inh
`Clc1cccc(Cc2c(-c3cccc(Br)c3)nc3ccc(Cl)cn23)c1` is listed with · | -39 | 0 | -3 | · | 1
`Clc1ccc2nc(-c3cccc(Br)c3)c(Cc3ccccc3)n2c1` is listed with · | -15 | 34* | -24 | · | 1
